miR-122 sensor: inhibitors of miR-122 in Huh7 cells; AID 602342; hit rate 0.3% among 340,000; activation (reporter increase), % at 12.5 µM; Huh7 miR-122 Renilla luciferase sensor, 48 h; neutral wells = 0, positive control = 100;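 active = mean replicate activation score at least 90 and every replicate individually at or above 90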;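 also: higher luciferase means less miR-122 activity so hits act as miR-122 inhibitors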
Yeast UUG start-1: modulators of start codon recognition fidelity in yeast; AID 602363; activity score, % at 18.7 µM; S. cerevisiae UUG-firefly luciferase reporter, luminescence/redox ratio; actives 0.13% (n = 350,000);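 active = replicate mean at a twofold rise or more, about +100% in these data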;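 note: firefly luciferase made from a UUG start codon reports start codon fidelity; reporter light over untreated wells divided by growth signal over untreated wells; some hits fall short of that in this replicate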
LGR2 antag: Drosophila LGR2 receptor signaling inhibition | HEK293 LGR2, CRE-luciferase, bursicon-stimulated, 4 h | inhibition, % at 9.99 µM | hit rate 0.35% among 380,000 | AID 720647;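 active = drop in luminescence signal, shown as inhibition above about 50% in the replicate tests, limit read from the data, passing the limit was not always enough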;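 also: agonist challenge used bursicon conditioned medium at about half maximal strength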
PglD DTNB: blocks C. jejuni PglD acetyltransferase activity; purified PglD enzyme, DTNB colorimetric CoA detection; inhibition, % at 12.5 µM; hit rate 0.098% among 360,000; AID 602405; in the data active = inhibition above about 16%, passing the limit was not always enough
CFTR F508del cor: correctors of CFTR F508del function in bronchial epithelial cells. hit rate 0.36% among 350,000. activity (quench increase), % at 7.58 µM. CFBE cells, YFP halide quenching; stimulated with forskolin plus potentiator P3; % fluorescence drop versus neutral controls;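 active = mean added fluorescence quench of at least 8% versus neutral control, with both replicates also reaching 8%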;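 also: cells transiently co-express mutant CFTR-F508del with the halide-sensitive YFP; corrector assay measuring rescue of mutant channel to the surface after 24 h compound exposure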
EWS-Fli block: inhibitors of EWS/Fli oncoprotein transcriptional activity | hit rate 0.67% among 350,000 | inhibition, % at 12.6 µM | A673 NR0B1-luciferase reporter, viability-normalised;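 active = mean inhibition of at least 50% after viability correction, with every replicate also passing that limit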;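 also: firefly luciferase signal divided by Alamar Blue viability fluorescence both relative to DMSO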
Yeast UUG start-2: alters UUG start codon use in yeast | activation, % at 38 µM | 540 tested, under 10 active | shares compounds with Yeast UUG start-1 | S. cerevisiae UUG-start firefly luciferase, luminescence, 4 h; 100% means double the DMSO signal;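 active = signal increase whose fitted curve reaches an absolute level of 40 at a concentration under 10 µM; inactive = activity opposite to the expected increase, or the rest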
An asterisk follows results filed as active; i = inactive; . = no result; ! = not active in a repeat; [ ] = another dose, or the depositor's remark. Hits are enriched below; roughly 1.3% of the tested compounds scored in any of these assays.

entry | Molecule | miR-122 sensor | Yeast UUG start-1 | LGR2 antag | PglD DTNB
1 | CC(C(=O)NN=C(c1ccccc1)c1ccccc1)N1CCOCC1 (configuration not stated) | . | . | -10.7 | .
2 | O=C1N(Cc2cccc(Cl)c2)C[C@@H]2C[C@@H](c3cccn3-c3ccccn3)N3CCC[C@@]123 | 0.1 | -7.5 | -2.4 | -2.6
3 | COc1ccccc1S(=O)(=O)N[C@H]1CC[C@@H](CCNC(=O)C2CCCC2)O[C@@H]1CO | -17.3[16.7 µM] | 126.9* | -14.9 | -1.2
4 | CC(C)NC(=O)N[C@@H]1CC[C@H](CCNC(=O)C2CCC2)O[C@@H]1CO | 2.3[16.7 µM] | -9.5 | 1.4 | 4.1
5 | CC(C)NC(=O)N[C@H]1CC[C@H](CCNC(=O)C2CCC2)O[C@H]1CO | 9.2[16.7 µM] | 135.6* | 3.7 | 0.4
6 | Cc1ccc(S(=O)(=O)N[C@H]2CC[C@H](CCNC(=O)C3CCCCC3)O[C@H]2CO)cc1 | 8.0[16.7 µM] | 146.1* | -7.6 | 1.0
7 | Cc1ccc(S(=O)(=O)N[C@@H]2CC[C@@H](CCNC(=O)C3CCCCC3)O[C@@H]2CO)cc1 | -15.8[16.7 µM] | -14.6 | -5.1 | -1.1
8 | COc1cccc(NC(=O)c2cc(-c3ccncc3)nc3c(C)cc(C)cc23)c1 | . | . | 2.7 | .

entry | CFTR F508del cor | EWS-Fli block | Yeast UUG start-2
1 | -0.2 | 4.0 | .
2 | -0.2 | 11.8 | .
3 | 1.0 | 1.6 | i
4 | -0.7 | 1.4 | .
5 | 2.3 | -1.7 | i
6 | 0.5 | -4.9 | i
7 | 1.2 | -3.5 | .
8 | -6.2 | 5.8 | .

entry | Molecule | miR-122 sensor | Yeast UUG start-1 | LGR2 antag | PglD DTNB
9 | COCc1cn(CC[C@H]2CC[C@H](NC(=O)Cc3cccnc3)[C@@H](CO)O2)nn1 | . | -13.3 | 10.3 | 1.5
10 | CC1CCN(C(=O)Cc2nn(C)c(=O)c3ccccc23)CC1 | -0.3 | -8.5 | . | 7.3
11 | Cn1nc(CC(=O)N2CCN(c3ccccc3)CC2)c2ccccc2c1=O | 343.8* | -8.3 | . | 0.4
12 | Cc1noc(C)c1S(=O)(=O)Nc1cccc2c1O[C@@H](CN(C)Cc1ccncc1)[C@@H](C)CN([C@@H](C)CO)C2=O | -4.1[16.7 µM] | -2.5 | -11.7 | -45.9
13 | CN(C)c1ccc(C=NCCC2(O)CCOC(C)(C)C2)cc1 (configuration not stated) | -5.2 | 117.5* | . | -2.9
14 | COc1ccccc1C1(CCN=Cc2ccc(N(C)C)cc2)CCOC(C)(C)C1 (configuration not stated) | -4.9 | 14.6 | -2.9 | 6.9
15 | CC(C)C[C@@H](CNCC(=O)[C@H](C)NC(=O)c1[nH]cnc1C(=O)N[C@@H](C)CN)NC(=O)c1nc[nH]c1C(=O)N[C@@H](CO)C(=O)O | -3.8 | -7.0 | 13.2 | -0.9
16 | CC(C)C[C@@H](CNCC(=O)[C@H](Cc1ccccc1)NC(=O)c1[nH]cnc1C(=O)N[C@@H](C)CN)NC(=O)c1nc[nH]c1C(=O)N[C@@H](C)C(=O)O | -0.1 | 130.2* | 7.0 | -0.2

entry | CFTR F508del cor | EWS-Fli block | Yeast UUG start-2
9 | -2.2 | -3.5 | .
10 | . | . | 4.0
11 | . | . | -2.3
12 | 0.1 | -16.4 | .
13 | . | . | -2.1
14 | 0.0 | 5.8 | .
15 | -1.9 | 0.8 | .
16 | 3.5 | -0.6 | 2.7

entry | Molecule | miR-122 sensor | Yeast UUG start-1 | LGR2 antag | PglD DTNB
17 | CC(C)C[C@@H](CNCC(=O)[C@H](C)NC(=O)c1[nH]cnc1C(=O)N[C@@H](C)CN)NC(=O)c1nc[nH]c1C(=O)N[C@@H](C)C(=O)O | -2.9 | 147.4* | -28.5 | -2.9
18 | Cc1ccc(S(=O)(=O)N[C@H]2CC[C@@H](CCn3cc(-c4ccccc4F)nn3)O[C@@H]2CO)cc1 | . | 10.8 | 14.1 | -3.1
19 | C=CCN(Cc1ccccc1)C(=O)[C@H]1N(Cc2ccc(OC)cc2)C(=O)[C@@H]2[C@@H](C(=O)O)C3C=CC21O3 (some centres not stated) | . | -6.4 | . | -1.0
20 | COc1ccc(CN2C(=O)[C@@H]3[C@H]4C(=O)O[C@H](c5ccccc5)[C@@H](C)N(C)C(=O)CC/C=C/[C@H]4O[C@@]34C=CCN(Cc3ccccc3)C(=O)[C@@H]24)cc1 | . | 11.8*! | . | 2.1
21 | Cc1cc(C(=O)CSc2nnc(-c3ccncc3)n2-c2ccccc2)c(C)n1C | . | . | . | .
22 | Cc1cc(C(=O)CSc2nnc(-c3ccccc3)n2C)c(C)n1C | -7.7 | -8.3 | . | -1.6
23 | C=CCn1c(SCC(=O)c2cc(C)n(C)c2C)nnc1-c1ccncc1 | -7.1 | -16.1 | 11.0 | -3.5
24 | Cn1c(SCC(=O)c2ccccc2)nnc1-c1cccnc1 | 11.8 | -18.1 | . | 1.3

entry | CFTR F508del cor | EWS-Fli block | Yeast UUG start-2
17 | 3.5 | -2.4 | 0.7
18 | -5.2 | 4.2 | .
19 | 0.2 | -0.5 | .
20 | 1.0 | 13.0 | i
21 | . | . | 6.9
22 | . | . | -7.3
23 | -0.1 | -11.8 | .
24 | . | . | .

entry | Molecule | miR-122 sensor | Yeast UUG start-1 | LGR2 antag | PglD DTNB
25 | Cc1cc(C(=O)CSc2nnc(-c3cccnc3)n2-c2ccccc2F)c(C)n1C | -4.3 | -4.9 | . | .
26 | CCCn1c(C)cc(C(=O)CSc2nc3ccccc3c(=O)n2Cc2ccco2)c1C | -3.1 | -20.6 | . | -14.3
27 | NC(=O)CSc1nc2ccccc2c(=O)n1Cc1ccco1 | -11.0 | -12.8 | . | -4.1
28 | CNC[C@@H]1Oc2cc(C#CCN(C)C)ccc2S(=O)(=O)N([C@H](C)CO)C[C@@H]1C | 1.1[16.7 µM] | 3.5 | -8.7 | -0.6
29 | Cc1ccc(S(=O)(=O)N(C)Cc2ccccc2)cc1C(=O)N1CCCCC1 | 1.6 | 9.8 | 10.0 | -4.7
30 | COc1ccc(-c2cc(NC(=O)Cc3c[nH]c4ccccc34)ccc2N(C)c2cccnc2)cc1F | . | . | 0.9 | .
31 | COCC(C)n1c(SCC(=O)c2cc(C)n(C)c2C)nc2ccccc2c1=O (configuration not stated) | -2.3 | 1.2 | 13.2 | 13.3
32 | Cc1cc(C(=O)CSc2nnc(-c3ccccc3)n2-c2ccccc2)c(C)n1-c1ncn[nH]1 | -6.2 | 653.4* | . | -2.4

entry | CFTR F508del cor | EWS-Fli block | Yeast UUG start-2
25 | . | . | 8.6
26 | -1.7 | -134.9 | 15.2
27 | . | . | .
28 | 0.1 | -4.2 | .
29 | -0.1 | . | .
30 | 2.0 | 8.8 | .
31 | -0.2 | 3.8 | -1.2
32 | . | . | 11.2

entry | Molecule | miR-122 sensor | Yeast UUG start-1 | LGR2 antag | PglD DTNB
33 | COc1cccc(CNC(=O)COC(=O)c2cc([N+](=O)[O-])ccc2N2CCCC2)c1 | . | 3.8 | 6.5 | -0.4
34 | C[C@@H]1CNC(=O)c2c(C(=O)NCc3ccc(CNC(=O)OC(C)(C)C)cc3)ncn21 | 2.3 | -18.0 | -39.4 | 0.9
35 | CC(C)(C)N(Cc1nc(-c2ccccc2)no1)C(=O)c1ccc2c(c1)OCO2 | -4.3 | -4.4 | 4.1 | -2.7
36 | COc1ccccc1NC(=O)N(C)C[C@H]1Oc2cc(Br)ccc2S(=O)(=O)N([C@@H](C)CO)C[C@@H]1C | 28.5[16.7 µM] | 161.7* | 7.2 | 3.0
37 | Cc1ccc(-c2ccc3c(c2)O[C@@H](CN(C)C(=O)Nc2ccccc2)[C@H](C)CN([C@@H](C)CO)S3(=O)=O)cc1 | . | 5.0 | 13.1 | 1.2
38 | C/C=C/c1ccc2c(c1)O[C@@H](CN(C)CCC)[C@@H](C)CN([C@@H](C)CO)S2(=O)=O | -1.7[16.7 µM] | -15.6 | 19.1 | 4.4
39 | C[C@H]1CN([C@@H](C)CO)S(=O)(=O)c2ccc(-c3cncnc3)cc2O[C@@H]1CN(C)Cc1ccccn1 | -2.3[16.7 µM] | 0.5 | -4.1 | -3.7
40 | C/C=C/c1ccc2c(c1)O[C@H](CN(C)CCC)[C@H](C)CN([C@H](C)CO)S2(=O)=O | 1.6[16.7 µM] | 75.4* | -15.0 | 1.8

entry | CFTR F508del cor | EWS-Fli block | Yeast UUG start-2
33 | 3.9 | -1.5 | .
34 | 3.0 | -5.9 | .
35 | -0.5 | 2.1 | .
36 | -4.1 | -6.5 | i
37 | 3.3 | 26.7 | .
38 | -0.1 | -6.7 | .
39 | 0.2 | -2.1 | .
40 | -0.5 | -9.0 | i

Complete entries from above.
Listed for COc1ccccc1NC(=O)N(C)C[C@H]1Oc2cc(Br)ccc2S(=O)(=O)N([C@@H](C)CO)C[C@@H]1C → miR-122 sensor: 28.5[16.7 µM]; Yeast UUG start-1: 161.7*; LGR2 antag: 7.2; PglD DTNB: 3.0; CFTR F508del cor: -4.1; EWS-Fli block: -6.5; Yeast UUG start-2: i
Listed for C/C=C/c1ccc2c(c1)O[C@@H](CN(C)CCC)[C@@H](C)CN([C@@H](C)CO)S2(=O)=O → miR-122 sensor: -1.7[16.7 µM]; Yeast UUG start-1: -15.6; LGR2 antag: 19.1; PglD DTNB: 4.4; CFTR F508del cor: -0.1; EWS-Fli block: -6.7; Yeast UUG start-2: .
